Assay results from article PMC5884652, “New antimicrobial peptide kills drug-resistant pathogens without detectable resistance” (Oncotarget, 2018).
In brackets after ≈: the same amount, converted by molar mass.

Experiments:
E. coli ATCC 25922 = assay type: cell-based, Escherichia coli; details: pH (I or II) not given; 10 mM sodium phosphate buffer, 10% LB; 37° C, 24 h; mean of 3 experiments
Source text: The method for peptide synthesis has been described in detail previously. E. coli ATCC 25922 (LB media), P. aeruginosa ATCC 15692 (NB+0.5% NaCl media), Listeria monocytogenes ATCC 3710 (LB media), Staphylococcus epidermidis ATCC 12228 (LB media), and S. aureus ATCC 29213 (TSB media) were obtained from the American Type Culture Collection (Manassas, VA, USA). Bacillus subtilis KCTC 1998 (LB media), Salmonella typhimurium KCTC 1926 (NB media), and Proteus vulgaris KCTC 2433 (NB media) were obtained from the Korean Collection for Type Cultures (Jeollabuk-do, Korea). E. coli CCARM 1238 was received from the Culture Collection of Antibiotic Resistant Microbes at Seoul Women’s University, Korea. […]
(§1) The antibacterial activities of AMPs (melittin, clavaspirin, and its analogs) and conventional antibiotic drugs (erythromycin, gentamicin, ampicillin, and piperacidin) were determined using microdilution assays. […] At the end of the incubation, the minimum inhibitory concentrations (MICs) of the peptides were determined using a VERSA Max microplate reader (Molecular Devices Co., Sunnyvale, CA, USA) at a wavelength of 600 nm. […] MIC values were calculated as the mean of 3 independent experiments conducted in triplicate.

S. aureus ATCC 29213 = assay type: cell-based, Staphylococcus aureus; details: pH (I or II) not given; 10 mM sodium phosphate buffer, 10% LB; 37° C, 24 h; mean of 3 experiments
Source text: The method for peptide synthesis has been described in detail previously. […] Bacillus subtilis KCTC 1998 (LB media), Salmonella typhimurium KCTC 1926 (NB media), and Proteus vulgaris KCTC 2433 (NB media) were obtained from the Korean Collection for Type Cultures (Jeollabuk-do, Korea). E. coli CCARM 1238 was received from the Culture Collection of Antibiotic Resistant Microbes at Seoul Women’s University, Korea. Drug-resistant P. aeruginosa 3543, 3904, 3547, and 4007 and S. aureus 3126, 0027, 5157, 1635, 4761, 5159, 3359, 2122, 1630, 1870, 3511, 5156, and 3518 were resistant strains isolated from patients with otitis media in a Chonnam National University’s hospital.
as §1

## CC[C@H](C)[C@H](NC(=O)CN)C(=O)NCC(=O)N[C@@H](C)C(=O)N[C@H](C(=O)N[C@@H](CC(C)C)C(=O)N[C@@H](CCCCN)C(=O)N[C@H](C(=O)N[C@@H](CC(C)C)C(=O)N[C@H](C(=O)N[C@H](C(=O)NCC(=O)N[C@@H](CC(C)C)C(=O)N1CCC[C@H]1C(=O)N[C@@H](C)C(=O)N[C@@H](CC(C)C)C(=O)N[C@H](C(=O)N[C@@H](CO)C(=O)N[C@@H](Cc1c[nH]c2ccccc12)C(=O)N[C@H](C(=O)N[C@@H](CCCCN)C(=O)N[C@@H](CCCNC(=N)N)C(=O)N[C@@H](CCCCN)C(=O)N[C@@H](CCCNC(=N)N)C(=O)N[C@@H](CCC(N)=O)C(=O)N[C@@H](CCC(N)=O)C(N)=O)[C@@H](C)CC)[C@@H](C)CC)[C@@H](C)O)[C@@H](C)O)C(C)C)C(C)C [Melittin]
E. coli ATCC 25922
  MIC, E. coli: 2 µM (≈ 5.69 µg/mL)
S. aureus ATCC 29213
  MIC, S. aureus: 2 µM (≈ 5.69 µg/mL)
